Experimental findings from PMC10137179 (Cells, 2023) are described below.

The chains behind the UniProt entries cited, without tags or fusion partners. Where a name states a change or a piece, a line headed by the entry shows the natural chain unless it says otherwise.
UniProt P16791: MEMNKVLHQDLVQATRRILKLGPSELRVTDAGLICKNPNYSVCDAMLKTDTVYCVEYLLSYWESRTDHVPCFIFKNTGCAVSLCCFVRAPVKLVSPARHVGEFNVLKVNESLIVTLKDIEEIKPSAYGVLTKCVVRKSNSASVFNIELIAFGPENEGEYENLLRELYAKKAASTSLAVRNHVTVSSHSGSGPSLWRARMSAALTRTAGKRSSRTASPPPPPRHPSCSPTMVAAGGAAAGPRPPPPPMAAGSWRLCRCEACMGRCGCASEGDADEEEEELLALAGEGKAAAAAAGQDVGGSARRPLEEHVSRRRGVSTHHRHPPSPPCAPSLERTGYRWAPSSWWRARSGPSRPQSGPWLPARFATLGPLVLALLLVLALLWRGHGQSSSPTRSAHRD

Assay [1] concerns the target pUL50–pUL53 interaction (LgBiT::UL53(1–87)-Flag + SmBiT::UL50-HA) (Human cytomegalovirus, UniProt P16791). The note with it: 293T cells, 5×, 1× or 0.2× anti-HCMV EC50 levels, truncated LgBiT::UL53(1–87)-Flag.
Assay [2] deals with pUL50–pUL53 interaction (LgBiT::UL53-Flag + SmBiT::UL50-HA) (Human cytomegalovirus, UniProt P16791). The note with it: 293T cells, 5×, 1× or 0.2× anti-HCMV EC50 levels, full-length LgBiT::UL53-Flag.

For the molecule `CCOc1cc2ncc(C#N)c(Nc3ccc(OCc4ccccn4)c(Cl)c3)c2cc1NC(=O)/C=C/CN(C)C` [neratinib], the “inhibitory effect on NanoBiT interaction signal (in words)” value in assay [1] and in assay [2] was “very minor or no effects” in each case.
